Earlier results as cited in article PMC7526454 (JCI Insight, 2020).

Settings: native ligand, during meal induced incretin secretion; cited from earlier work

For CC[C@H](C)[C@H](NC(=O)[C@H](CO)NC(=O)[C@H](Cc1ccc(O)cc1)NC(=O)[C@H](CC(=O)O)NC(=O)[C@H](CO)NC(=O)[C@@H](NC(=O)[C@H](Cc1ccccc1)NC(=O)[C@@H](NC(=O)CNC(=O)[C@H](CCC(=O)O)NC(=O)[C@H](C)NC(=O)[C@@H](N)Cc1ccc(O)cc1)[C@@H](C)O)[C@@H](C)CC)C(=O)N[C@@H](C)C(=O)N[C@@H](CCSC)C(=O)N[C@@H](CC(=O)O)C(=O)N[C@@H](CCCCN)C(=O)N[C@H](C(=O)N[C@@H](Cc1c[nH]cn1)C(=O)N[C@@H](CCC(N)=O)C(=O)N[C@@H](CCC(N)=O)C(=O)N[C@@H](CC(=O)O)C(=O)N[C@@H](Cc1ccccc1)C(=O)N[C@H](C(=O)N[C@@H](CC(N)=O)C(=O)N[C@@H](Cc1c[nH]c2ccccc12)C(=O)N[C@@H](CC(C)C)C(=O)N[C@@H](CC(C)C)C(=O)N[C@@H](C)C(=O)N[C@@H](CCC(N)=O)C(=O)N[C@@H](CCCCN)C(=O)NCC(=O)N[C@@H](CCCCN)C(=O)N[C@@H](CCCCN)C(=O)N[C@@H](CC(N)=O)C(=O)N[C@@H](CC(=O)O)C(=O)N[C@@H](Cc1c[nH]c2ccccc12)C(=O)N[C@@H](CCCCN)C(=O)N[C@@H](Cc1c[nH]cn1)C(=O)N[C@@H](CC(N)=O)C(=O)N[C@H](C(=O)N[C@H](C(=O)N[C@@H](CCC(N)=O)C(N)=O)[C@@H](C)O)[C@@H](C)CC)C(C)C)[C@@H](C)CC [GIP(1-42), GIP(1-42)NH2], the “Css (free): range of Cmax values” is listed as 50-250^E pM.
